Test results published in ChEMBL document CHEMBL5576105, “Synthesis and biological evaluation of O4'-benzyl-hispidol derivatives and analogs as dual monoamine oxidase-B inhibitors and anti-neuroinflammatory agents” (Bioorg Med Chem, 2024).

The chains behind the UniProt entries cited, without tags or fusion partners.
UniProt P27338, whole entry: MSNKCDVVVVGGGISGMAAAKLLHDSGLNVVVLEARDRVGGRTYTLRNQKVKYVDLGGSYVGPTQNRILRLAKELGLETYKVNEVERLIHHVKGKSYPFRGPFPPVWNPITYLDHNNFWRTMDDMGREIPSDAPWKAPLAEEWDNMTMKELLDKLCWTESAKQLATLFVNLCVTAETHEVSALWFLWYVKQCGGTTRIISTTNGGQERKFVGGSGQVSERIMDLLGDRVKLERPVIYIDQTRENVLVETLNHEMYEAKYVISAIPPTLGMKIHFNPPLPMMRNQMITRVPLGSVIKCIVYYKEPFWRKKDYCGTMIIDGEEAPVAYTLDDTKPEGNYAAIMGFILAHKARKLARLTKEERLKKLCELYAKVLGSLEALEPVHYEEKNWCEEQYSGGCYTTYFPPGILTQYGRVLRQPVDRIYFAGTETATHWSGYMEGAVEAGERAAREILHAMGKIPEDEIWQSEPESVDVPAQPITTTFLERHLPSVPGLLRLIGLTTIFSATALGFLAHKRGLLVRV

How the values were obtained:
[1] = biological target: Amine oxidase [flavin-containing] B (Homo sapiens, UniProt P27338); assay: Inhibition of human recombinant MAO-B expressed in baculovirus-infected BTI cells using benzylamine as substrate preincubated with enzyme for 15 mins followed by substrate addition and measured after 20 mins by Amplex Red reagent based fluorescence analysis
Homo sapiens = organism: Homo sapiens; assay: Selectivity index, ratio of IC50 for inhibition of human recombinant MAO-A to IC50 for inhibition of human recombinant MAO-B expressed in baculovirus-infected BTI cells

O=C1/C(=C/c2ccc(O)cc2)Oc2cc(O)ccc21
pIC50 [1]: < 5.00 | Ratio IC50 (Homo sapiens): < 0.53

pIC50: −log10 of the molar value.
